Broadly, the Ki is the equilibrium dissociation constant of an inhibitor or competing ligand from its target. High values mean a looser hold on the target, low ones a stronger hold on the target.

Protein sequences, listed by entry. Tags and fused reporters are not part of them. Lines headed by an entry give the natural chain unless they say otherwise; changes in a name come on top.
UniProt P97266, whole entry, looked up: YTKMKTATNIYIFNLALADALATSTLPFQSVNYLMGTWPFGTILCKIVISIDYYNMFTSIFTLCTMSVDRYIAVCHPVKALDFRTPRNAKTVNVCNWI
UniProt P41144: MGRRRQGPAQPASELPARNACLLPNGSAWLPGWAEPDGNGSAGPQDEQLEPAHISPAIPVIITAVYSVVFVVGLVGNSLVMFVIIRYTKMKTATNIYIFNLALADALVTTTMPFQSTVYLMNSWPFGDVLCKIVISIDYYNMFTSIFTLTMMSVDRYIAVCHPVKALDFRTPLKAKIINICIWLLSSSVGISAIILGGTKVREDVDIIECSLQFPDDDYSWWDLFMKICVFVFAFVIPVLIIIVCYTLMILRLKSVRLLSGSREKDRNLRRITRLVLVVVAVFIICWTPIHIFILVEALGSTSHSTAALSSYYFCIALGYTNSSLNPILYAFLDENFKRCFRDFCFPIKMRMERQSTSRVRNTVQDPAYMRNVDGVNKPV

The target in experiment [1] is Mu-type opioid receptor (Cavia porcellus, UniProt P97266). In words: Compound was evaluated for the inhibition of Opioid receptor mu 1 binding to guinea pig brain membranes, using [3H]- DAMGO as radioligand.
The target in experiment [2] is Kappa-type opioid receptor (Cavia porcellus, UniProt P41144). In words: Compound was evaluated for the inhibition of Opioid receptor kappa1 binding to guinea pig brain membranes, using 1 nM [3H]- U69,593 as radioligand.

Each structure is given as a SMILES string.

Consider `CN(C(=O)Cc1ccc(Cl)c(Cl)c1)[C@@H](CN1CCCC1)c1cccc(N)c1`, for which the figures for the Ki in experiment [1] and in experiment [2] were 1380 nM and 14.9 nM, respectively.

With `CN(C(=O)Cc1ccc(Cl)c(Cl)c1)[C@H](CN1CCCC1)c1cccc(N)c1`, the results for the Ki in experiment [1] and in experiment [2] were 7.65 nM and 0.0592 nM, respectively.

(Values after ChEMBL document CHEMBL1151564, “Arylacetamide kappa-selective opioid ligands” (Bioorg Med Chem Lett, 1997).)
